The test has as its target R132H mutant IDH1 enzyme (Homo sapiens (Human), UniProt O75874, R132H). In words: R132H IDH1 Enzymatic Assay. It counts as biochemical. The following applies: R132H mutant IDH1 enzyme 1.5 nM final; luminescence readout; read-out: IC50.

By UniProt entry, the sequences of proteins in these tests, tags left out.
UniProt O75874, whole entry R132H: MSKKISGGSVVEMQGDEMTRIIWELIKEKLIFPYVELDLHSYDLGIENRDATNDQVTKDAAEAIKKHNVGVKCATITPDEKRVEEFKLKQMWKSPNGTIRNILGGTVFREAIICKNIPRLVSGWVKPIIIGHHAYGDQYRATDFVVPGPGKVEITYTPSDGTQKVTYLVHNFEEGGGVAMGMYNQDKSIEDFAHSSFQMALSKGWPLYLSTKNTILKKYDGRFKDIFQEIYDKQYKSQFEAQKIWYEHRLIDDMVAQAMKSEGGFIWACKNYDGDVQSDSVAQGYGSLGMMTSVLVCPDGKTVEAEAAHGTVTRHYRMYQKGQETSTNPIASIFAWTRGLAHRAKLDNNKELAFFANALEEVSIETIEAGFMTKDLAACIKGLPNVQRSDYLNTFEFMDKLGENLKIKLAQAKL

What is called pIC50 is the IC50 on a negative log10 scale, so that one unit is a factor of ten.

SMILES strings stand for the structures. pIC50: −log10 of the molar value.

For `O=C([C@H]1CC[C@H](N2CC(F)(F)C2)C1)N1Cc2cccnc2Nc2ccc(N3CCOCC3)cc21` (single isomer, unassigned) [Example 481], the pIC50 was 6.25.
The result for `O=C([C@H]1CC[C@H](NC2(C(F)(F)F)CC2)CC1)N1Cc2cccnc2Nc2ccc(C3COCCO3)cc21` (stereo partly drawn) [Example 467, trans-4-({8-[-1,4-dioxan-2-yl]-5,11-dihydro-6H-pyrido[2,3-b][1,5]benzodiazepin-6-yl}carbonyl)-N-[1-(trifluoromethyl)cyclopropyl]-cyclohexanamine] reads 7.34; that for `CC(C)O[C@H]1CC[C@H](C(=O)N2Cc3cccnc3Nc3ccc(N4CC5CCC(C4)O5)cc32)OC1` [Example 160, (8-(8-oxa-3-azabicyclo[3.2.1]octan-3-yl)-5,11-dihydro-6H-benzo[b]pyrido[2,3-e][1,4]diazepin-6-yl)((2R,5S)-5-isopropoxytetrahydro-2H-pyran-2-yl)methanone], 7.82.
The result for `CCO[C@H]1CC[C@H](C(=O)N2Cc3cccnc3Nc3ccc(N4C[C@H]5CC[C@@H]4CO5)cc32)CC1(F)F` [Example 332, 6-{[(1S,4S)-4-ethoxy-3,3-difluorocyclohexyl]carbonyl}-8-[(1R,4R)-2-oxa-5-azabicyclo[2.2.2]oct-5-yl]-6,11-dihydro-5H-pyrido[2,3-b][1,5]benzodiazepine] reads 8.52; that for `CO[C@H]1CC[C@H](C(=O)N2Cc3cccnc3Nc3ccc(N(C)C4COC4)cc32)CC1` [Example 247, 6-[(trans-4-methoxycyclohexyl)carbonyl]-N-methyl-N-oxetan-3-yl-6,11-dihydro-5H-pyrido[2,3-b][1,5]benzodiazepin-8-amine], 6.47; that for `CO[C@@H](C1CC1)[C@H]1CC[C@@H](C(=O)N2Cc3cccnc3Nc3ccc(N4CCOCC4)cc32)CC1` [Example 168, 6-({Cis-4-[(S)-cyclopropyl(methoxy)methyl]cyclohexyl}carbonyl)-8-morpholin-4-yl-6,11-dihydro-5H-pyrido[2,3-b][1,5]benzodiazepine], 6.57.
The result for `COC1CCC(C(=O)N2Cc3cccnc3Nc3ccc(CC4CCOCC4)cc32)CC1` (stereo not shown) [Example 424, 6-[(4-methoxycyclohexyl)carbonyl]-8-(tetrahydro-2H-pyran-4-ylmethyl)-6,11-dihydro-5H-pyrido[2,3-b][1,5]benzodiazepine] reads 7.36; that for `CO[C@@H]1CCN(c2ccc3c(c2)N(C(=O)[C@H]2CC[C@H](OC(C)C)CO2)Cc2cccnc2N3)[C@@H](C)C1` (single isomer, unassigned) [Example 45], 7.14.
Turning to `COC1CCC(C(=O)N2Cc3cccnc3Nc3ccc(CCC(C)(C)C)cc32)CC1` (stereo not shown) [Example 422, 8-(3,3-dimethylbutyl)-6-[(4-methoxycyclohexyl)carbonyl]-6,11-dihydro-5H-pyrido[2,3-b][1,5]benzodiazepine], the negative-log IC50 (pIC50) was 6.98.
On to `CO[C@@H]1CCN(c2ccc3c(c2)N(C(=O)[C@H]2CC[C@H](OC(C)C)CO2)Cc2cccnc2N3)[C@H](C)C1` (single isomer, unassigned) [Example 44], for which the negative logarithm of the IC50 (pIC50) was 7.46.
Regarding `CO[C@]1(C)CCC[C@@H](C(=O)N2Cc3cccnc3Nc3ccc(N4CCOCC4)cc32)CC1` [Example 135, 6-{[(1R,4R)-4-methoxy-4-methylcycloheptyl]car-bonyl}-8-morpholin-4-yl-6,11-dihydro-5H-pyrido[2,3-b][1,5]benzodiazepine], the negative-log IC50 (pIC50) is 6.76.
Turning to `COC1CCC(C(=O)N2Cc3cccnc3Nc3ccc(CC4CCOCC4)cc32)CC1` (stereo not shown) [Example 429, 6-[(4-methoxycyclohexyl)carbonyl]-8-(tetrahydro-2H-pyran-4-ylmethyl)-6,11-dihydro-5H-pyrido[2,3-b][1,5]benzodiazepine], the pIC50 is 7.85.
The result for `CC(C)[C@@H](N[C@H]1CC[C@@H](C(=O)N2Cc3cccnc3Nc3ccc(N4CCOCC4)cc32)CC1)C(F)(F)F` [Example 457, cis-N-[(1R)-2-methyl-1-(trifluoromethyl)propyl]-4-[(8-morpholin-4-yl-5,11-dihydro-6H-pyrido[2,3-b][1,5]benzodiazepin-6-yl)carbonyl]cyclohexanamine] reads 7.05; that for `O=C([C@H]1CC[C@H](OCC(F)(F)F)CC1)N1Cc2cccnc2Nc2ccc(N3CCOCC3)cc21` [Example 132, 8-morpholin-4-yl-6-{[trans-4-(2,2,2-trifluoroethoxy)cyclohex-yl]carbonyl}-6,11-dihydro-5H-pyrido[2,3-b][1,5]benzodiazepine], 7.19.
As to `CC(C)O[C@H]1CC[C@H](C(=O)N2Cc3cccnc3Nc3ccc(C(C)OC[C@@H]4CCCO4)cc32)CC1` (stereo partly drawn) [Example 546, 6-{[trans-4-(1-methylethoxy)cyclohexyl]carbonyl}-8-{1-[(2S)-tetrahydrofuran-2-ylmethoxy]ethyl}-6,11-dihydro-5H-pyrido[2,3-b][1,5]benzodiazepine], the pIC50 was 7.77.
The result for `CO[C@@H]1[C@H](C)C[C@H](C(=O)N2Cc3cccnc3Nc3ccc(N4CCOCC4)cc32)C[C@@H]1C` [Example 124, 6-{[(1r,3R,4s,5S)-4-methoxy-3,5-dimethylcyclohexyl]car-bonyl}-8-morpholin-4-yl-6,11-dihydro-5H-pyrido[2,3-b][1,5]benzodiazepine] reads 6.92.
Consider `CCCO[C@H]1CC[C@H](C(=O)N2Cc3cccnc3Nc3ccc(N4CC5CCC(C4)O5)cc32)CC1` [Example 313, 8-[8-oxa-3-azabicyclo[3.2.1]oct-3-yl]-6-[(trans-4-propoxycyclohexyl)carbonyl]-6,11-dihydro-5H-pyrido[2,3-b][1,5]benzodiazepine], for which the pIC50 is 7.37.
As to `CC(C)C1CCC(C(=O)N2Cc3cccnc3Nc3ccccc32)CC1` (stereo not shown) [Example 68, 6-{[4-(1-methylethyl)cyclohexyl]carbonyl}-6,11-dihydro-5H-pyrido[2,3-b][1,5]benzodiazepine], the negative-log IC50 (pIC50) is 7.28.
Turning to `CC(C)O[C@H]1CC[C@H](C(=O)N2Cc3cccnc3Nc3ccc(C(C)OCC4COC(C)(C)C4)cc32)CC1` (stereo partly drawn) [Example 545, 8-{1-[(5,5-dimethyltetrahydrofuran-3-yl)methoxy]ethyl}-6-{[trans-4-(1-methylethoxy)cyclohexyl]carbonyl}-6,11-dihydro-5H-pyrido[2,3-b][1,5]benzodiazepine], the pIC50 is 7.96.
The result for `CC(C)O[C@H]1CC[C@H](C(=O)N2Cc3cccnc3Nc3ccc(N4CC5CC(C4)O5)cc32)CC1` [Example 298, 6-{[trans-4-(1-methylethoxy)cyclohexyl]car-bonyl}-8-(6-oxa-3-azabicyclo[3.1.1]hept-3-yl)-6,11-dihydro-5H-pyrido[2,3-b][1,5]benzodiazepine] reads 7.27; that for `C[C@@H](N[C@H]1CC[C@H](C(=O)N2Cc3cccnc3Nc3ccc(N4CCOCC4)cc32)CC1)C(F)(F)F` [Example 441, trans-4-[(8-morpholin-4-yl-5,11-dihydro-6H-pyrido[2,3-b][1,5]benzodiazepin-6-yl)carbonyl]-N-[(1R)-2,2,2-trifluoro-1-methylethyl]cyclohexanamine], 6.35.
In the case of `CCO[C@@H]1CC[C@@H](C(=O)N2Cc3cccnc3Nc3ccc(N4C[C@H]5CC[C@@H]4CO5)cc32)OC1` (single isomer, unassigned) [Example 335], the negative logarithm of the IC50 (pIC50) was 7.23.

For the origin of these results see patent US10442819B2, “Tricyclic compounds as inhibitors of mutant IDH enzymes” (Merck Sharp & Dohme Corp., priority 2014, dated 2019).
